The target in data set [1] is rat CRF-R2 beta (Rattus norvegicus, UniProt P47866). Briefly: cAMP assay in transfected CHO-K1 cells. The conditions noted are these: read-out: CRFR2β (IC50 nM), mean of 3 data points (n=3). The method, then:
(§1) cAMP was determined utilizing a DiscoverX HitHunter assay Enzyme Fragment Complementation (EF) technology purchased from Eurofins as described in the manufacturing instructions with some adjustments. IC50's were calculated from antagonist dose response curves utilizing interpolated cAMP levels and/or relative light unit (RLU) data. In addition, eXpress assay ready cAMP kits were also utilized with hCRF-R1 and hCRF-R2 division arrested cells according to the manufacturing instructions. Briefly, antagonist dilutions were prepared in assay buffer: Gibco Hank's Buffered Salt Solution (Gibco 30-410, HBSS) supplemented with + 10 mM HEPES Buffer (Gibco 15630-080), containing 6X Tween-20 (Gibco BP337-100; final concentration in wells 0.01%). After removal of the culture media in cells, assay buffer (30 µl) was added to each of the wells on the plate utilizing a multichannel pipettor (INTEGRA VIAFLO 300 µl). The various antagonist dilutions (7.5 µl) at 6X concentration were added to the wells according to the assay protocol plate map and the plate was incubated for 30 min at 37°C. To compare the effects of albumin on the antagonist IC50, assays were also performed by diluting the compounds as described above in assay buffer containing 0.1% [w:v] bovine serum albumin (BSA) or no BSA (Bovine Albumin Fraction V, Fatty Acid Free: MP Biomedicals, Cat. 152401, Lot. S8210). Immediately thereafter, 7.5 µl (6X) of agonist (hCRF for hCRF-R1, hUCN1 for hCRF-R2) was added at a final concentration of 1 nM/well; approximately EC80) followed by a further incubation for 30 min at 37°C. Following the incubation of the antagonists and agonists, 15 µl of Eurofins HitHunter cAMP antibody solution and 60 µl of the Working Detection Solution were added followed by a 1 h incubation at room temperature in the dark. Finally, 60 µl of cAMP Solution A was added followed by a further incubation overnight (approx. 18 h). The total final reaction volume was 180 µl/well. The resulting chemiluminescent signal was measured in a Tecan Spark luminometer.
(§2) For transient transfections, plasmid constructs were supplied by GenScript for rat, cynomolgus monkey, and canine CRF-R1 alpha, and CRF-R2 beta subtypes, as well as human CRF-R1 alpha and CRF-R2 alpha, beta and gamma subtypes all cloned into a pCDNA3.1 (Neo^R) vector. Briefly, Chinese hamster ovary strain K1 (CHO-K1) parental cells were expanded from a liquid nitrogen-stored working bank vial (1.0E+6 cells) by thawing at 37°C for 60 seconds, followed by expansion in 30 ml CHO-K1 Complete Media in a T-225 flask. Cells were passaged at least once by aspirating-out used culture media and washing adherent cells once in phosphate buffered saline without divalent cations (Intermountain BSS-PBS-1X6), followed by dislodging the adherent cells using Enzyme-free cell dissociation buffer (EFDB, Millipore Sigma C5789) and subsequent continued culture in complete media.
(§3) On Day 0, CHO-K1 parental cells were harvested when ~ 90% confluent, seeded into 6-well plates (Costar 3516) at approximately 400,000 cells/well, and cultured overnight in complete media. On Day +1 the cells were monitored for optimal confluence (60-75%), health, cell distribution and morphology, and the media was changed by aspiration with the addition of 2mL fresh complete media. Lipid:DNA complexes were prepared by either: (i) mixing 2.5 µg of plasmid DNA into 500 µl OptiMEM reduced serum media (Gibco Cat# 31985062) together with 9 µl of Lipofecamine LTX (Invitrogen™ Cat# 15338100) followed by incubation for 25 minutes at room temperature; or (ii) mixing 2.0 µg of plasmid DNA into 82 µl OptiMEM with 16 µl of FuGENE 6 (Promega Cat# E2691), at a 4:1 lipid:pDNA volume ratio, followed by incubation for 45 minutes at room temperature. Lipid:DNA complexes were subsequently added dropwise directly onto cells on the 6-well plate. […]
In general terms: Cyclic AMP is a second messenger, typically raised through Gs and lowered through Gi signalling.

Protein sequences, listed by entry. Tags and fused reporters are not part of them. Chains listed by the source or under a name are the forms on record and can include a tag or linker. Residues count along the entry.
UniProt P47866, 1-431 with tags or gaps: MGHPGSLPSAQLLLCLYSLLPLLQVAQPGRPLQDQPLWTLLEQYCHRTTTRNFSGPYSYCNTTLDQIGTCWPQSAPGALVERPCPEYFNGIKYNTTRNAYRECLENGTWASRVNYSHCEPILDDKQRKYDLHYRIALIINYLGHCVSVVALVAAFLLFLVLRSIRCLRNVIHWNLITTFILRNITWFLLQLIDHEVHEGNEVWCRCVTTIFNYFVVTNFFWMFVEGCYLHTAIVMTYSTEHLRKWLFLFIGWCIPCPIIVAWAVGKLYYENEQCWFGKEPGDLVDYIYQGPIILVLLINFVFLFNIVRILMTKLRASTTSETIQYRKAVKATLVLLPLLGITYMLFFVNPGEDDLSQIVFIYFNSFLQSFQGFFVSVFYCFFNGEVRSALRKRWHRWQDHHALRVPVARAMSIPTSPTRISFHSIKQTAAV
UniProt Q13324, whole entry: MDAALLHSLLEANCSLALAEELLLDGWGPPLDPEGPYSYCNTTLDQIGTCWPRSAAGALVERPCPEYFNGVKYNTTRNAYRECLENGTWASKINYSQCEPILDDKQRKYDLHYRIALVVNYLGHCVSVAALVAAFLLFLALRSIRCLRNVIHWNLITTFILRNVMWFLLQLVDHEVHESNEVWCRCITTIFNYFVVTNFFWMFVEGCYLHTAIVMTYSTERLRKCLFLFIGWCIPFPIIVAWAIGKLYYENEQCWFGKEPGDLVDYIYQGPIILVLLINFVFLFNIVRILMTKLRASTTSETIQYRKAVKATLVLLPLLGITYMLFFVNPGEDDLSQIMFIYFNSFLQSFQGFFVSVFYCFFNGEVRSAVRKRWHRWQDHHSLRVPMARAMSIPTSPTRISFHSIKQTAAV
UniProt Q13324, 1-397 with tags or gaps: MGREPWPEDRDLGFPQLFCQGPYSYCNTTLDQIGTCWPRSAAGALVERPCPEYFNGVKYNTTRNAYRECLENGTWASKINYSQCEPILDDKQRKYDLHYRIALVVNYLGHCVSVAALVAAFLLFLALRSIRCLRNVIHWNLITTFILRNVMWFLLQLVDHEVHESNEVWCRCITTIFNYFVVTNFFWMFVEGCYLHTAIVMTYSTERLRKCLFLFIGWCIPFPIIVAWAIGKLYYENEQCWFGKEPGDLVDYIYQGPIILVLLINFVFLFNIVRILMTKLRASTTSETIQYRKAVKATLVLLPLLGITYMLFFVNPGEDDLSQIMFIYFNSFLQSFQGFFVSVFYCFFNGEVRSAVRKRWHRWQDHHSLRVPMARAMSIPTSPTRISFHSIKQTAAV
UniProt Q13324, 1-438 with tags or gaps: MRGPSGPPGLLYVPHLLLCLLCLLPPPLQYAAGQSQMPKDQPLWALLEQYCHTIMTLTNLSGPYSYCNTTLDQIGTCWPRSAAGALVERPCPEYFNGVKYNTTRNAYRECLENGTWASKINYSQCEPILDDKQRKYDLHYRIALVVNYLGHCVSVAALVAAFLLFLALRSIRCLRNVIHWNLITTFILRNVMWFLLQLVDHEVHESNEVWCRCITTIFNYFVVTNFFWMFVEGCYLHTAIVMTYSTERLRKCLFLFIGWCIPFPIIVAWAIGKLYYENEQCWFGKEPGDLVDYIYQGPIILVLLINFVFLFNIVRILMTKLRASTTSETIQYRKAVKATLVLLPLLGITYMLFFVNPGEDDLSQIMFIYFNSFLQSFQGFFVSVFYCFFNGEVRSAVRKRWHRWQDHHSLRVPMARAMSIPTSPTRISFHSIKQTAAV
UniProt P34998, 24-415 limits assumed: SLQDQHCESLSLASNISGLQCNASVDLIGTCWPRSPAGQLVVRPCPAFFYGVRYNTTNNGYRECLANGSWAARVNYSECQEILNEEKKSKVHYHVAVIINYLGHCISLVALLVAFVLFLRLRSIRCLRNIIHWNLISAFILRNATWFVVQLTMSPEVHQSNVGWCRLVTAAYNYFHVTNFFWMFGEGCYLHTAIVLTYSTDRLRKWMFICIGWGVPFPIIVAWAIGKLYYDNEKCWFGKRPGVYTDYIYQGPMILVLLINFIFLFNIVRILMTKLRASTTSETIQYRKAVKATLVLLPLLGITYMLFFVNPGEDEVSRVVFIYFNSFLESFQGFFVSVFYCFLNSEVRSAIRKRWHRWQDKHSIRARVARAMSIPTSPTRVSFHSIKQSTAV
UniProt A0A2K5WPT1, 24-415 limits assumed: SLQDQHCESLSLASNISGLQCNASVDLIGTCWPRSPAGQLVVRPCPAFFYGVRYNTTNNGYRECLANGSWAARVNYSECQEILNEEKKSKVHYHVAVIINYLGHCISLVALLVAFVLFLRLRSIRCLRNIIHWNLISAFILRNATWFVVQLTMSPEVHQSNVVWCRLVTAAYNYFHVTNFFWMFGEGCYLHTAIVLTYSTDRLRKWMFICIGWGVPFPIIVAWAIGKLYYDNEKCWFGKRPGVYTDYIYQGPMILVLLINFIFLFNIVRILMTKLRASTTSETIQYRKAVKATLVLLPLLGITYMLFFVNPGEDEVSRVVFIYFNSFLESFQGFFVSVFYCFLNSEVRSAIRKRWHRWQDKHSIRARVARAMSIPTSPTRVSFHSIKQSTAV
UniProt P35353, 24-415 limits assumed: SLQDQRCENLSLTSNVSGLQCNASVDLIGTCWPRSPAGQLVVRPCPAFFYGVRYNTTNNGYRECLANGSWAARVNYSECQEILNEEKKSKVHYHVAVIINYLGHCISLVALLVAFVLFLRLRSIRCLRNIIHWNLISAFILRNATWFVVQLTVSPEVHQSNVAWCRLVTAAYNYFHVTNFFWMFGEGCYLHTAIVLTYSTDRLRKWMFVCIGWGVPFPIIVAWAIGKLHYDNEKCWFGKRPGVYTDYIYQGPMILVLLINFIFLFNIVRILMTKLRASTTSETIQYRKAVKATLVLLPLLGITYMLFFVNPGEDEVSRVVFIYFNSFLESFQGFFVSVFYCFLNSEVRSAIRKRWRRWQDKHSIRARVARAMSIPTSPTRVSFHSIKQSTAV
UniProt A0A8I3PB95, 31-437 limits assumed: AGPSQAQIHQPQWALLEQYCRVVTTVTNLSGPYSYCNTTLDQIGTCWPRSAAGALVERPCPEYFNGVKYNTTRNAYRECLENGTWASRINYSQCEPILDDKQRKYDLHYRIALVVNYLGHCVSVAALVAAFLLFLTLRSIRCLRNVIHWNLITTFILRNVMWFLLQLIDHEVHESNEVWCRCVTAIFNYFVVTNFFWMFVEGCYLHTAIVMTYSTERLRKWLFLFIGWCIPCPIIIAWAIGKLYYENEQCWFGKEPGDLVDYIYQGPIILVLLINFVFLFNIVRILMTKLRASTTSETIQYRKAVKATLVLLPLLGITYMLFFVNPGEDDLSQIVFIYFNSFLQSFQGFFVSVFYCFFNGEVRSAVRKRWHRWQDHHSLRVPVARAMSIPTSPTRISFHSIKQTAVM
UniProt A0A8I3PHA9, 24-415 limits assumed: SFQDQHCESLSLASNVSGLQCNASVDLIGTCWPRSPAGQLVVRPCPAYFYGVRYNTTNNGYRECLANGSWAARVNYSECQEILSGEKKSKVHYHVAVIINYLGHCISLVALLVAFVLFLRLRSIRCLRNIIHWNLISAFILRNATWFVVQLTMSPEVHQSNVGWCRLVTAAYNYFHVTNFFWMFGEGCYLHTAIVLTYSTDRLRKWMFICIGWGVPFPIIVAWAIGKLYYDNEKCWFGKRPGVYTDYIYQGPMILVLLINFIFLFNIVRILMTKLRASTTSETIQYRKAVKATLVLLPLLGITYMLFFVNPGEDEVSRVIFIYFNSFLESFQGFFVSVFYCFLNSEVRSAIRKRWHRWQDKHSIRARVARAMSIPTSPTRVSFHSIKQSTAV
UniProt A0A2K5WS31, 30-431 limits assumed: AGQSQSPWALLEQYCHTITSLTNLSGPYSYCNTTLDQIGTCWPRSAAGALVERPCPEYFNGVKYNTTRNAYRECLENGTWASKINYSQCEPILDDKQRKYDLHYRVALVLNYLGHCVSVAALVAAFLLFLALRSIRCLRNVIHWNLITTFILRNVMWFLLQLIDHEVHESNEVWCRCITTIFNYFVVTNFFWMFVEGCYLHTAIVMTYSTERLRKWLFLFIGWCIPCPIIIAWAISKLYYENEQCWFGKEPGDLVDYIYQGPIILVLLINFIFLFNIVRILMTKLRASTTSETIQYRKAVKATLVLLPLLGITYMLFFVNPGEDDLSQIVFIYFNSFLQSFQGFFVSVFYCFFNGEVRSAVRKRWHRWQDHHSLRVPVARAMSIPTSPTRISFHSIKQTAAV

In data set [2] the target is human CRF-R2 beta (Homo sapiens, UniProt Q13324). Briefly: cAMP assay in transfected CHO-K1 cells. The conditions noted are these: read-out: CRFR2β (IC50 nM); Human; mean of 3 data points (n=3). The method, then:
as §1, §2, §3

Data set [3] concerns the target human CRF-R1 alpha (Homo sapiens, UniProt P34998). Description: cAMP assay in transfected CHO-K1 cells. Conditions: read-out: CRFR1 (IC50 nM); Human; mean of 3 data points (n=3). The method, then: as §1, §2, §3
Data set [4] deals with cynomolgus monkey CRF-R1 alpha (Macaca fascicularis, UniProt A0A2K5WPT1). Briefly: cAMP assay in transfected CHO-K1 cells. Conditions: read-out: CRFR1 (IC50 nM); Cyno; mean of 3 data points (n=3). Here is the method:
as §1, §2, §3

For data set [5], the target named is rat CRF-R1 alpha (Rattus norvegicus, UniProt P35353). Briefly: cAMP assay in transfected CHO-K1 cells. Conditions: read-out: CRFR1 (IC50 nM), mean of 3 data points (n=3). The method, then:
as §1, §2, §3

Data set [6] deals with canine CRF-R2 beta (Canis lupus familiaris, UniProt A0A8I3PB95). Description: cAMP assay in transfected CHO-K1 cells. The conditions noted are these: read-out: CRFR2β (IC50 nM); Dog; mean of 3 data points (n=3). The method, then: as §1, §2, §3
Data set [7] addresses canine CRF-R1 alpha (Canis lupus familiaris, UniProt A0A8I3PHA9). Briefly: cAMP assay in transfected CHO-K1 cells. Conditions: read-out: CRFR1 (IC50 nM); Dog; mean of 3 data points (n=3). The method, then: as §1, §2, §3
Data set [8] addresses human CRF-R2 gamma (Homo sapiens, UniProt Q13324). Briefly: cAMP assay in transfected CHO-K1 cells. Conditions: read-out: CRFR2γ (IC50 nM), mean of 3 data points (n=3). The method, then:
as §1, §2, §3

Data set [9] has as its target cynomolgus monkey CRF-R2 beta (Macaca fascicularis, UniProt A0A2K5WS31). Description: cAMP assay in transfected CHO-K1 cells. Conditions: read-out: CRFR2β (IC50 nM); Cyno; mean of 3 data points (n=3). Here is the method:
as §1, §2, §3

The target of data set [10] is human CRF-R2 alpha (Homo sapiens, UniProt Q13324). Briefly: cAMP assay in transfected CHO-K1 cells. The conditions noted are these: read-out: CRFR2α (IC50 nM); Human; mean of 3 data points (n=3). The method, then:
as §1, §2, §3

Data set [11] is described as follows: Peptide pharmacokinetics, monkey study (IV and SC). Conditions: cynomolgus monkey. Here is the method: Pharmacokinetics of the test peptides were evaluated in vivo as described herein. Male Sprague Dawley rats (300-450 g), male Beagle dogs (5-10 kg) and male cynomolgus monkeys (2-4 kg) were used in the pharmacokinetics (PK) study. All animal procedures were approved by the Institutional Animal Care and Use Committee at the Test Facility.
For IV dosing, compounds were administered by intravenous bolus injection into one of the two peripheral tail veins, at 0.1 mg/kg or 0.3 mg/kg in 0.01M phosphate (pH 7.4, 1 mg/mL). Following dosing, the catheter was flushed with 3 mL of saline prior to removal. For SC dosing, compounds were administered at the intra-scapular skin, at 0.3 mg/kg or 0.9 mg/kg in 0.01M phosphate (pH 7.4, 5 mg/mL). The SC injection site was prepared by clipping away the hair and cleaning with alcohol. After administration, the site was marked with a circle approximately 5cm in diameter.
Blood samples were collected into tubes with K2EDTA. Tubes were stored on wet ice until processed to plasma by centrifugation (2,200 x g at nominal 4°C for 10 minutes) within 60 minutes of collection. Plasma samples were transferred into individual uniquely labeled matrix tubes and stored at nominal -80°C until analysis by liquid chromatography tandem-mass spectrometry (LC-MS/MS).
The plasma samples were prepared by solid phase extraction (SPE) using a Waters PRiME HLB Microelution plate. The SPE plate was conditioned using water:methanol (50:50, v/v) and 0.5% tween 80 in water. After pretreated samples were loaded, wells were washed with 5% methanol in water and 0.1% TFA in water:acetonitrile (80:20, v/v). Wells were eluted with 0.1% formic acid, 0.5% 2,2,2-trifluoroethanol in water:acetonitrile (20:80, v/v) followed by a dilution with 0.1% formic acid, 0.1% tween 80 in water for analysis by LC-MS/MS. The analyte and internal standard (IS) were separated by reversed-phase chromatography using a Shimadzu Nexera X2 UHPLC system and Phenomenex bioZen Peptide PS-C18 50x2.1-mm, 3µm column. The analyte and IS were detected using an Applied Biosystems Sciex API 6500 triple quadrupole mass spectrometer. The mass spectrometer was equipped with an electrospray ionization source operated in the positive-ion mode. The analyte and internal standard were monitored in the multiple-reaction-monitoring scan mode.
Noncompartmental pharmacokinetic parameters were calculated using Phoenix® WinNonlin® software (Version 8.3; Linear Up Log Down Interpolation Calculation Method; Certara L.P.).

The source of these data is patent publication EP4847524A2, “FATTY ACID CONJUGATED CYCLIC PEPTIDES” (dated 2026).

For orientation: IC50 means the midpoint of a concentration-inhibition curve.

Take “Ac-Asp-Leu-Thr-D-Phe-His-Leu-Leu-Arg-Glu-Val-Leu-Glu-Nle-K*-Gln-Glu-Glu-Gln-cVal-Ala-Gln-E#-Ala-Glu-K#-Asn-Arg-Lys-Leu-Nle-Glu-cVal-Ala-CONH2”: the IC50 in data set [1] worked out at 48 nM; in [2] it was 36 nM; in data set [3], 0.74 nM; in data set [4] it was 1 nM; in data set [5], 0.85 nM; in [6] it was 32 nM. For the same substance, the IC50 in data set [7] amounted to 1.3 nM; in data set [8] it was 1.6 nM; in data set [9], 28 nM; in [10], 406 nM. The “IV half-life (IV t1/2)” value in data set [11] (intravenously 0.3 mg/kg) worked out at 34.9 h. The “clearance (IV CL)” value in data set [11] (intravenously 0.3 mg/kg) turned out to be 1.5 mL/h/kg. Also, in [11] (intravenously 0.3 mg/kg), the “volume of distribution (IV Vd)” value was determined as 0.066 L/kg. Also, in data set [11] (subcutaneously 0.9 mg/kg), the “administered SC dose that reaches systemic circulation (F)” value was found to be 100%. Also, the “concentration of peptide in blood plasma (AUC)” value in [11] (subcutaneously 0.9 mg/kg) amounted to 626 µg·h/mL. In addition, in data set [11] (subcutaneously 0.9 mg/kg), the “time to reach peak plasma concentration (Tmax)” value was determined as 5.3 h. Moreover, the “time to reduce the concentration to half its initial value (t1/2)” value in [11] (subcutaneously 0.9 mg/kg) was 33.5 h.
